Assays:
human erythrocyte AChE = human erythrocyte AChE (Homo sapiens, UniProt P22303); conditions: read-out: IC50 of AChE
Experimental: (§1) The IC (50) values can be determined for such inhibitors using methods well known in the art. In such assay the pharmacological activity of each compound, as an IC (50), defined as the concentration, in nanomoles, required to inhibit 50% of the enzyme activity of AChE and BChE, is determined separately. For determination of IC (50) values, the enzyme activity of each concentration was expressed as a percent of that determined in the absence of each compound. This then was transformed into a logit format, where logit=In (% activity/[100-% activity]), and was plotted as a function of the log concentration of the compound. IC (50) values (i.e., logit=In (50/[100−5O]=0) were determined only from correlation coefficients (r^2) of less than −0.985 and when more than 50% inhibition was achieved from duplicate samples. The selectivity ratio is then determined by comparing the IC (50) values obtained for each compound with AChE to that for BChE.

Protein sequences, listed by entry. Tags and fused reporters are not part of them. Residues count along the entry.
UniProt P22303, 32-617 isoform P22303-2 limits assumed: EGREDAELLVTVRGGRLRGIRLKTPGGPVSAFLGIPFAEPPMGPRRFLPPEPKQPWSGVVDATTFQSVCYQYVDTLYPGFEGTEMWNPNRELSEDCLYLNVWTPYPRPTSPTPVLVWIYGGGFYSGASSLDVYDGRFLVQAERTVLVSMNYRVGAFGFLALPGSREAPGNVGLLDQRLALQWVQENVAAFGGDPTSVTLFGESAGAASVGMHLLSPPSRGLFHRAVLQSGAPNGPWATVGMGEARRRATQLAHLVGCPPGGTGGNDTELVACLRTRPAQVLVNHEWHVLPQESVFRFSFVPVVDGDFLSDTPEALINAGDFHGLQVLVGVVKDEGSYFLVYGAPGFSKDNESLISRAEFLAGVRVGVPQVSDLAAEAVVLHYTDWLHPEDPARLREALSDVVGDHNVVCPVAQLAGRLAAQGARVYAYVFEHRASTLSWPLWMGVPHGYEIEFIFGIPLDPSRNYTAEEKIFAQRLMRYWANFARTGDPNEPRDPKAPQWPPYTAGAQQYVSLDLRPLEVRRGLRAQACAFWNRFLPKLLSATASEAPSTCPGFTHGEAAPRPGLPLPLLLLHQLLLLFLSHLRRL
UniProt P06276, 29-602: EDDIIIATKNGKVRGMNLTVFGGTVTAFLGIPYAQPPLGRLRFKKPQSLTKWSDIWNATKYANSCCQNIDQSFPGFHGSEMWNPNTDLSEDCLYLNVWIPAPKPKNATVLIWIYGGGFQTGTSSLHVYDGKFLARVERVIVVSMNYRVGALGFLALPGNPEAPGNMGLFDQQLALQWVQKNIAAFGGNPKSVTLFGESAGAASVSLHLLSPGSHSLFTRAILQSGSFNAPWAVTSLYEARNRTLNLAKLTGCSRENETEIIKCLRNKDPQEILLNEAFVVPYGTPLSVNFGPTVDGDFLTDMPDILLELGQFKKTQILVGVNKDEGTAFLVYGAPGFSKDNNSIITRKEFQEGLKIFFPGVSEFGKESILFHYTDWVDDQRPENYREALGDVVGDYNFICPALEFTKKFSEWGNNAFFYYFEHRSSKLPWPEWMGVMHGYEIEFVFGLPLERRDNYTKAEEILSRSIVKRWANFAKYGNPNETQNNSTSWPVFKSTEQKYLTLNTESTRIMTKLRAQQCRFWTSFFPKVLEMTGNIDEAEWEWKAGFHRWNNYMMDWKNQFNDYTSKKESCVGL

human plasma BChE = target: T1, human plasma BChE (Homo sapiens, UniProt P06276); assay: BChE inhibition, IC(50) by logit plot; format: biochemical
T1 construct: human plasma BChE; from tissue; host or cells: human plasma
Experimental: as §1

3′-methyl-carbamoyl eseroline was tested, and the IC50 (human erythrocyte AChE) was 27 nM and the IC50 (human plasma BChE) was 165 nM.
